{"source": "DBAASP", "key": {"[1]": {"tested_on": "Escherichia coli K-12", "test": "≥ marks a high value that may be exact or a test limit, other limits are often not marked, values filed in µg/mL are converted to µM"}, "[2]": {"tested_on": "Staphylococcus aureus ATCC 12600", "test": "≥ marks a high value that may be exact or a test limit, other limits are often not marked, values filed in µg/mL are converted to µM"}}}
{"smiles": "CC[C@H](C)[C@H](NC(=O)[C@H](CCSC)NC(=O)[C@H](CCCN=C(N)N)NC(=O)CNC(=O)[C@H](C)NC(=O)[C@H](Cc1cnc[nH]1)NC(=O)[C@H](Cc1ccccc1)NC(=O)[C@H](CC(C)C)NC(=O)CNC(=O)[C@H](CCCCN)NC(=O)[C@@H](NC(=O)[C@@H](NC(=O)[C@H](Cc1cnc[nH]1)NC(=O)[C@H](Cc1ccccc1)NC(=O)[C@H](Cc1ccccc1)NC(=O)[C@@H](N)Cc1ccccc1)[C@@H](C)CC)[C@@H](C)CC)C(=O)N[C@@H](Cc1cnc[nH]1)C(=O)NCC(=O)N[C@@H](CC(C)C)C(=O)N[C@H](C(=O)O)C(C)C", "note": "[FFFHIIKGLFHAGRMIHGLV]", "values": [{"measurement": "MIC", "setting": "[1]", "result": 8, "unit": "µM"}]}
{"smiles": "CC[C@H](C)[C@H](NC(=O)[C@H](CC(C)C)NC(=O)[C@H](C)NC(=O)[C@@H]1CCCN1C(=O)[C@H](CC(C)C)NC(=O)CNC(=O)[C@@H](NC(=O)[C@@H](NC(=O)[C@H](CC(C)C)NC(=O)[C@@H](NC(=O)[C@H](CCCCN)NC(=O)[C@H](CCCCN)NC(=O)[C@H](C)NC(=O)[C@H](C)NC(=O)[C@H](CO)NC(=O)[C@@H](NC(=O)[C@H](CC(C)C)NC(=O)[C@H](CCCCN)NC(=O)[C@H](CCCCN)NC(=O)[C@@H](NC(=O)[C@H](Cc1ccccc1)NC(=O)[C@H](CO)NC(=O)[C@H](CCCCN)NC(=O)[C@H](Cc1c[nH]c2ccccc12)NC(=O)[C@@H](N)CCCCN)[C@@H](C)CC)[C@@H](C)O)C(C)C)[C@@H](C)O)[C@@H](C)O)C(=O)N[C@@H](CO)C(=O)O", "note": "[KWKSFIKKLTSAAKKVLTTGLPALIS]", "values": [{"measurement": "MIC", "setting": "[1]", "result": 2, "unit": "µM"}, {"measurement": "MIC", "setting": "[2]", "result": 16, "unit": "µM"}]}
{"smiles": "CC(C)C[C@H](NC(=O)[C@H](C)NC(=O)[C@H](CCC(=O)O)NC(=O)[C@H](CC(N)=O)NC(=O)[C@H](CC(C)C)NC(=O)[C@@H](N)C(C)C)C(=O)N[C@@H](CC(C)C)C(=O)N[C@@H](CCCN=C(N)N)C(=O)O", "note": "[VLNEALLR]", "values": [{"measurement": "MIC", "setting": "[1]", "result": "≥ 128", "unit": "µM"}]}
{"smiles": "CC(C)C[C@H](NC(=O)[C@H](CC(C)C)NC(=O)[C@H](CC(N)=O)NC(=O)[C@H](CCC(=O)O)NC(=O)[C@H](CC(N)=O)NC(=O)[C@H](CC(C)C)NC(=O)[C@@H](N)C(C)C)C(=O)N[C@@H](C)C(=O)O", "note": "[VLNENLLA]", "values": [{"measurement": "MIC", "setting": "[1]", "result": "≥ 128", "unit": "µM"}]}
